Data from ChEMBL document CHEMBL1152692, “Synthesis and evaluation of ligands for D2-like receptors: the role of common pharmacophoric groups” (Bioorg Med Chem, 2009).

Protein sequences, listed by entry. Tags and fused reporters are not part of them.
UniProt P21917, whole entry: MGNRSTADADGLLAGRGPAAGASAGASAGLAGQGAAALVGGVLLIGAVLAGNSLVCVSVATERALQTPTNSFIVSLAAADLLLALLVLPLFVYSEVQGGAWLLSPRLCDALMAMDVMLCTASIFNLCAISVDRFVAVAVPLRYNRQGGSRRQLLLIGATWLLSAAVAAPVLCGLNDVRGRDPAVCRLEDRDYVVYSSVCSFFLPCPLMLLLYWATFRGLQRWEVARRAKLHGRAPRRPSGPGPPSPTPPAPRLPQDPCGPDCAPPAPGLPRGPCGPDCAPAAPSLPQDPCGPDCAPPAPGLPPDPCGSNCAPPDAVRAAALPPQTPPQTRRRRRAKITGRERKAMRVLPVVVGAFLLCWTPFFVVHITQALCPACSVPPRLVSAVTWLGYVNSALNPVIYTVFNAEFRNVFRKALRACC
UniProt P35462, whole entry: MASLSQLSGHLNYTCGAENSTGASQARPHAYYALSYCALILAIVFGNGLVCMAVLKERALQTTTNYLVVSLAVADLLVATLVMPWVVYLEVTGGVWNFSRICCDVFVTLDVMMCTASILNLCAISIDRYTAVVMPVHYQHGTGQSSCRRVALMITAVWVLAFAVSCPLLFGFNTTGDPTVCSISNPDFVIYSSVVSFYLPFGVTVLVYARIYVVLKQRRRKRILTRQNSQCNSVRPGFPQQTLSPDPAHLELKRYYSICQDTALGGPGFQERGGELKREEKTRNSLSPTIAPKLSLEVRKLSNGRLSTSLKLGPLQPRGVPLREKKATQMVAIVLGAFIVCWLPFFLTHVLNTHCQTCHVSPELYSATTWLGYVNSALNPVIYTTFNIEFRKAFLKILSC

Columns and labels:
D(4) dopamine receptor = D(4) dopamine receptor (Homo sapiens, UniProt P21917)
D(3) dopamine receptor = D(3) dopamine receptor (Homo sapiens, UniProt P35462)

Q: Which Ki (D(4) dopamine receptor) does the source give for `O=C(CCCN1CCC(O)(c2ccc(Cl)cc2)C1)c1ccc(F)cc1` (configuration not stated) here?
A: 11 nM

Q: What about the Ki (D(3) dopamine receptor) of the same compound?
A: 200 nM
